This is an account of results in US20110105397A1, “METHOD FOR TREATING HEART FAILURE WITH STRESSCOPIN-LIKE PEPTIDES” (priority 2009, published 2011).

Protein sequences, listed by entry. Tags and fused reporters are not part of them. Residues count along the entry.
UniProt Q60748, 1-431 isoform Q60748-2: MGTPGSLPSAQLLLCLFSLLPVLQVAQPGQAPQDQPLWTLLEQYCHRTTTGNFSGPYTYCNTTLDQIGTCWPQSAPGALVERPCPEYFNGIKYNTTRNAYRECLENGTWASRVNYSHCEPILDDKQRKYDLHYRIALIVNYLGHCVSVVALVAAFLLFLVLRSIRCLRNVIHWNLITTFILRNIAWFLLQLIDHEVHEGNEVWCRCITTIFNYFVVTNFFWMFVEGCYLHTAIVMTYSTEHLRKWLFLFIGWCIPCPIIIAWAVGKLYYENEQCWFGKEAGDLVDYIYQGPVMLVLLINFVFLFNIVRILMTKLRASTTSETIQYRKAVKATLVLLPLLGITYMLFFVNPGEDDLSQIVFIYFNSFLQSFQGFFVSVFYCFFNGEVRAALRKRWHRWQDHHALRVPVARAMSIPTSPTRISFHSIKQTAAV

“And” between values parts separate entries of the source, which are not always exact repeats. Equal values may be shown once. Read-outs that look alike come from different tables or passages of the source.

Experiment [1] has as its target T1, human CRHR2 (Homo sapiens, UniProt Q13324).
T1 construct: expressed in transfected cells
T1 sequence (Q13324 1-411): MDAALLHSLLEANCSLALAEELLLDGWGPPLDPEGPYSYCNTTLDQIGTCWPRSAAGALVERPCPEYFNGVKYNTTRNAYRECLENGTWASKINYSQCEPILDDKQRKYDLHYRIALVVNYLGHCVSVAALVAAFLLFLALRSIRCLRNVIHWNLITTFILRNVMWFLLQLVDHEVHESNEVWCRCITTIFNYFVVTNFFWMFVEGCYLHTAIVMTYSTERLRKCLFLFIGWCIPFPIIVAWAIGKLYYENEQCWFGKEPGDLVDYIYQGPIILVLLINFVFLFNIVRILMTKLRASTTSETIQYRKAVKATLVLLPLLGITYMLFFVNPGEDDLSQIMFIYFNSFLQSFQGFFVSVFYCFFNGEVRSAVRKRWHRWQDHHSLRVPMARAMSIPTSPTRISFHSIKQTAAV
The experiment in a line: CRHR2 radioligand binding, [125I]-anti-sauvagine-30, SK-N-MC membranes. As to conditions: for Ki / nH: CRHR2. As to the method: The binding profile of h-SCP (SEQ ID NO:1) at CRHR2 was determined in radioligand binding studies in a membrane preparation of SK-N-MC cells stably transfected with human CRHR2 using [^125I]-anti-sauvagine-30 as the radiolabel. […] The solution was then homogenized with a Polytron tissue grinder at a setting of 10 and 7×3 s (Brinkmann Instruments, Westbury, N.Y.). […] The supernatant was re-centrifuged at 26,892×g for 25 min at 4° Celsius with the final pellet being re-suspended in assay buffer. […] For competition studies, cell membranes of […] volume were incubated with either 60 pM [^125I]-anti-sauvagine-30 in 50 μl volume for the CRHR2 assay or with)[^125I]-([…]-sauvagine for the CRHR1 assay in the presence of 15 μl of competing ligand for 120 min having a total volume of 150 μl. […] The bound radioactivity was separated by filtration using a Multiscreen Resist manifold (Millipore Corp., Billerica, Mass., U.S.A). The filters were washed three times with ice-cold PBS at pH 7.5 and radioactivity retained on the filters was quantified by its liquid scintillation measured by a TopCount counter (Packard BioScience, Boston, Mass., U.S.A). All experiments were performed in triplicate. Data from individual competition curves were expressed as the percentage of specific [^125I]-anti-sauvagine-30 or)[^125I]-([…]-sauvagine binding (B) within each experiment. […] The competition curve obtained with h-SCP (SEQ ID NO:1) was biphasic.

In experiment [2] the target is T1, human CRHR2. The experiment in a line: cAMP assay, h-CRHR2 transfected SK-N-MC cells. The format is cell-based. The following applies: for nH (Hill slope) / αmax (maximal asymptote): h-CRHR2; for αmax (maximal asymptote): in %. As to the method: The concentration required for 50% maximum effect (A50) was 0.4 nM.
Human CRHR1 (accession number X72304) or CRHR2 (accession number U34587) were cloned into pcDNA3.1/Zeo expression vector and stably transfected into SK—N-MC cells by electroporation. Cells were maintained in MEM w/Earl's Salt with 10% FBS, 50 I.U. penicillin, 50 μg/ml streptomycin, 2 mM L-glutamine, 1 mM sodium pyruvate and 0.1 mM non-essential amino acids, 600 μg/ml G418. Cells were grown at 37° C. in 5% CO2
Cells were plated in 96-well tissue culture dishes (Biocoat from BD Biosciences) overnight at 50,000 cell/well. Cells were washed with PBS then resuspended in DMEM F-12 without phenol red, containing 10 μM isobutylmethylxanthine (IBMX). Cells were incubated with the peptides at concentrations ranging from 1 pM to 10 μM for 60 min at 37° Celsius. […] Forskolin (10 μM), a direct stimulant of adenylate cyclase, was used as positive control. The assays were stopped by the addition of 0.5 M HCl and mixing by orbital rotation for 2 h at 4° Celsius.
To assess the activity of the inventive polypeptide at the CRHR2, an intracellular cAMP measurement test using a Flash plate radioactive assay (Catalog No. Cus56088; Perkin Elmer, Mass., U.S.A.) was employed.
Transfected SK—N-MC cells were plated in 96-well Biocoat tissue culture dishes (BD Biosciences, San Jose, Calif., U.S.A) overnight at 50,000 cell/well. Cells were first washed with PBS and then suspended with DMEM/F-12 without phenol red, containing […]. Suspended cells were transferred into a 96-well flash plate coated with scintillant fluid. Cells were incubated with peptides ranging from 1 pM to 1 μM, for 60 min, at 37° Celsius. Forskolin at 10 μM was used as positive control. After ligand stimulation, cells were lysed by the addition of 0.5M HCl and mixed by orbital rotation for 2 h at 4° Celsius in order to release intracellular cAMP into the media.
Media containing released intracellular cAMP was transferred to a 96-well flash plate coated with scintillant fluid containing an anti-cAMP antibody. In this assay, intracellular cAMP competes with ^125I-labeled cAMP binding to the antibody. To generate a standard curve, cAMP ranging from 2.5 to 250 pmoles/ml was included in the experiment. [^125I]-cAMP was measured on a TopCount scintillation counter (Perkin Elmer, Mass., U.S.A).
Individual agonist concentration-response curve data were fitted to the Hill equation, see formula below, using GraphPad Prism (Graphpad Software, La Jolla, Calif., U.S.A.), to provide estimates of agonist concentration needed to generate one-half maximal response (A50), and the maximal asymptote (α) and Hill slope (nH) parameters. In this equation, [A] is the agonist concentration and E is the measured effect:
For display purposes the mean fitted parameter estimates were used to generate a single E/[A] curve shown superimposed on the mean experimental data. Potency estimates for agonists, pA50, are expressed as the negative logarithm of the midpoint of each curve and listed with their standard error of measurement (SEM). Logarithm base 10 of the agonist dose ratio (Log DR) values were calculated by subtraction of the test compound pA50 value from the corresponding h-SCP (SEQ ID NO:1) control pA50 value within the same assay batch. The SEM values of the Log DR values are given by the square root of the sum of the squared SEM values of the h-SCP (SEQ ID NO:1) control and test compound pA50 values.
Human and rat peptides (see Table 10) were used on the stimulation of h-CRHR1 or h-CRHR2 transfected SK—N-MC cells in the cAMP flash plate assay. Peptides were incubated for 1 hr at 37° Celsius. Curves were calculated using non-linear regression sigmoidal concentration-response analysis calculation in GraphPad Prism. The so obtained pA50 values are shown in Table 11 in addition to literature values. […]
(In general: cAMP levels reflect the balance of adenylyl cyclase and phosphodiesterase activity.)

The next experiment concerns the target m-CRHR2b (Mus musculus, UniProt Q60748). The following applies: m-CRHR2b transfected CHO-K1 cells (Lewis et al., 2001); cited from earlier work.

One may read the Ki as a dissociation constant, usually derived from enzyme kinetics or from competition with a known ligand. The low end stands for a stronger hold on the target, the high end for a looser hold on the target. On to `CC[C@H](C)[C@H](NC(=O)[C@H](CCC(N)=O)NC(=O)[C@H](C)NC(=O)[C@H](CCSC)NC(=O)[C@H](CC(C)C)NC(=O)[C@H](Cc1c[nH]cn1)NC(=O)[C@H](C)NC(=O)[C@H](CC(N)=O)NC(=O)[C@H](C)NC(=O)[C@H](C)NC(=O)[C@H](C)NC(=O)[C@H](CCC(N)=O)NC(=O)[C@H](C)NC(=O)[C@H](CCCNC(=N)N)NC(=O)[C@H](CC(C)C)NC(=O)[C@H](CC(N)=O)NC(=O)[C@H](CCCCN)NC(=O)[C@H](C)NC(=O)[C@H](CCCCN)NC(=O)[C@H](C)NC(=O)[C@@H](NC(=O)[C@H](CC(N)=O)NC(=O)[C@H](Cc1ccccc1)NC(=O)[C@H](CC(C)C)NC(=O)[C@H](CC(C)C)NC(=O)[C@H](CC(N)=O)NC(=O)[C@H](CCSC)NC(=O)[C@@H](NC(=O)[C@H](CC(N)=O)NC(=O)[C@@H](NC(=O)[C@@H]1CCCN1C(=O)[C@@H](NC(=O)[C@H](CC(=O)O)NC(=O)[C@H](CC(C)C)NC(=O)[C@H](CO)NC(=O)[C@H](CC(C)C)NC(=O)[C@@H](NC(=O)[C@@H](N)Cc1ccccc1)[C@@H](C)O)C(C)C)[C@@H](C)O)[C@@H](C)CC)[C@@H](C)CC)C(N)=O` [SEQ ID NO: 116, FTLSLDVPTNIMNLLFNIAKAKNLRAQAAANAHLMAQI-NH2], for which, at human CRHR2 [1], the Ki was 324 nM and the nH turned out to be 0.68 ± 0.08. Further, on human CRHR2 [2] (Table 11), the “nH (Hill slope)” value came to 1.02 and the “αmax (maximal asymptote)” value was found to be 101.8. In addition, on human CRHR2 [2] (Table 11, h-CRHR2 transfected SK-N-MC cells, 1 hr at 37° Celsius, read-out: pA50 (Experimental) (converted)), the EC50 is 0.55 nM. Moreover, the “Published pA50” value at m-CRHR2b is 9.92^2.

At human CRHR2 [1], `CC[C@H](C)[C@H](N)C(=O)N[C@H](C(=O)N[C@@H](CC(C)C)C(=O)N[C@@H](CO)C(=O)N[C@@H](CC(C)C)C(=O)N[C@@H](CC(=O)O)C(=O)N[C@H](C(=O)N1CCC[C@H]1C(=O)N[C@H](C(=O)NCC(=O)N[C@@H](CC(C)C)C(=O)N[C@@H](CC(C)C)C(=O)N[C@@H](CCC(N)=O)C(=O)N[C@H](C(=O)N[C@@H](CC(C)C)C(=O)N[C@@H](CC(C)C)C(=O)N[C@@H](CCC(=O)O)C(=O)N[C@@H](CCC(N)=O)C(=O)N[C@@H](C)C(=O)N[C@@H](CCCNC(=N)N)C(=O)N[C@@H](C)C(=O)N[C@@H](CCCNC(=N)N)C(=O)N[C@@H](C)C(=O)N[C@@H](C)C(=O)N[C@@H](CCCNC(=N)N)C(=O)N[C@@H](CCC(=O)O)C(=O)N[C@@H](CCC(N)=O)C(=O)N[C@@H](C)C(=O)N[C@H](C(=O)N[C@H](C(=O)N[C@@H](CC(N)=O)C(=O)N[C@@H](C)C(=O)N[C@@H](CCCNC(=N)N)C(=O)N[C@H](C(=O)N[C@@H](CC(C)C)C(=O)N[C@@H](C)C(=O)N[C@@H](CCCNC(=N)N)C(=O)N[C@H](C(N)=O)C(C)C)[C@@H](C)CC)[C@@H](C)O)[C@@H](C)O)[C@@H](C)CC)[C@@H](C)CC)C(C)C)C(C)C` [SEQ ID NO: 115, IVLSLDVPIGLLQILLEQARARAAREQATTNARILARV-NH2, reference compound] showed a Ki of 18.2 nM and a nH of 1.28 ± 0.15. In addition, the “competition curve / binding profile” value at human CRHR2 [1] (CRHR2, [125I]-anti-sauvagine-30) is listed as “exhibited only high affinity binding”. Besides, at human CRHR2 [2] (Table 11, listed as h-UCN2), the “nH (Hill slope)” value was 0.9 and 0.72; the “αmax (maximal asymptote)” value is 114.7 and 128.9. The molecule further registered a nH on human CRHR2 [2] (Table 14) of 1.34. On human CRHR2 [2] (Table 14, % of the maximum response obtained to h-SCP), this molecule came in with a αmax of 116.9%. Moreover, the EC50 on human CRHR2 [2] (Table 14, read-out: pA50 (converted)) is 0.309 nM. Further, the “Published pA50” value on m-CRHR2b was 9.37.
